Reference: US4758555A, “Method for treating convulsions and epilepsy with organic copper compounds” (priority 1986, dated 1988)

Test: Lethality / acute toxicity (LD50 in 24 hours)
Details: dose and time given in the source

## Cu(II)(4-nitrosalicylate)2
  Lethality (in words): Lethal at higher doses
